Measurements taken from PMC6790694, “Selective Modification of Ribosomally Synthesized and Post‐Translationally Modified Peptides (RiPPs) through Diels–Alder Cycloadditions on Dehydroalanine Residues” (Chemistry (Weinheim an Der Bergstrasse, Germany), 2019).

Settings: microwave 50 °C with cyclopentadiene; nosiheptide 32 h in H2O/TFE; nisin Z 16 h with 0.1 % AcOH (aq.) instead of ddH2O; LC-MS

Row | Substance | stability under microwave irradiation
1 | nisin Z | good stabilities
2 | nosiheptide | good stabilities
